Drawing on paper PMC7006680, “Sulfocoumarins as dual inhibitors of human carbonic anhydrase isoforms IX/XII and of human thioredoxin reductase” (Journal of Enzyme Inhibition and Medicinal Chemistry, 2020), this text covers Ki for two substances.

The target of the test is T1, hCA IX (Homo sapiens, UniProt Q16790).
T1 construct: made in house
As to the kind of experiment: Stopped-flow CO2 hydration CA inhibition assay, hCA IX. Type of test: biochemical. The protocol:
The CO2 concentrations ranged from 1.7 to 17 mM for the determination of the kinetic parameters and inhibition constants. […] The uncatalysed rates were determined in the same manner and subtracted from the total observed rates. […] Inhibitor and enzyme solutions were pre-incubated together for 15 min at room temperature prior to assay, in order to allow for the formation of the E–I complex.

Usually Ki stands for the equilibrium dissociation constant of an inhibitor or competing ligand from its target. Lower therefore signals higher affinity. “1-(2,2-Dioxido-1,2-benzoxathiin-6-yl)-4-(4-fluorophenyl)-1H-1,2,3-triazole [Compound 1b]” yielded a Ki of 8.3 nM.
Next, “1-(2,2-Dioxido-1,2-benzoxathiin-6-yl)-5-(4-fluorophenyl)-1H-1,2,3-triazole [Compound 1d]”: 6.9 nM.
